Columns and labels:
SKOV3 target cells [1] = experiment: anti-HER2 ADCC assay, 51Cr release method; format: cell-based
Procedure: The nanoluciferase method was compared to the ^51Cr method in an anti-HER2 ADCC assay. For this, SKOV3 cells stably expressing nanoluciferase were or were not labeled with ^51Cr and were used simultaneously in an ADCC assay under the same experimental conditions, according to the same principle as that described in example 4.
SKOV3 target cells transformed to stably express nanoluciferase were incubated or not incubated for 1 hour in a saline solution of Na2CrO4 (Perkin Elmer, France), equivalent to 100 μCi of ^51Cr per million cells, then washed 4 times with RPMI-1640, 10% FCS and counted.
At the end of the 4-hour incubation, 25 μl of supernatant of each condition are recovered, the cytolysis is measured and the percentage of specific lysis is calculated according to modes strictly identical to those described in example 4.
The mean percentages of specific lysis obtained by the two methods in the three experiments and also the associated modelings are shown in FIG. 17. Here again, the two methods give very similar results, with a dispersion of the values which seems to be less for the nanoluciferase method.

SKOV3 target cells [2] = experiment: anti-HER2 ADCC assay, nanoluciferase release method; format: cell-based
[3] = mean±SD, 4 h, CD16 T lymphocyte effectors
[4] = standard range, mean±SD of 3 experiments

With trastuzumab the mean potency (SKOV3 target cells [1]; 80% range, mean±SD) was 82.9±13.0%, the mean potency (SKOV3 target cells [1]; 125% range, mean±SD) was 154.2±24.8% and the Emax (SKOV3 target cells [1]; [3]) was 41.3±4.3%. For the same substance, the Emin (SKOV3 target cells [1]; [3]) was 0.5±2.2%, the “mean EC50” value (SKOV3 target cells [1]; [4]) was 0.4025 ± 0.1725 µg/mL and the mean potency (SKOV3 target cells [2]; 80% range, mean±SD) was 69.3±7.9%. For the same substance, the mean potency (SKOV3 target cells [2]; 125% range, mean±SD) was 136.9±19.4%, the Emax (SKOV3 target cells [2]; [3]) was 34.1±4.3% and the “mean EC50” value (SKOV3 target cells [2]; [4]) was 0.1816 ± 0.008 µg/mL.
